# Screens from PubChem BioAssay.
# In the library only some 16% were active in any assay of this set; here they are far more common.
# DT40 TDP1 CPT: DT40-hTDP1 cell growth loss with CPT. chicken DT40 Tdp1-/-;hTDP1 cells + 20 nM CPT, ATP luminescence, 48 h. Potency, µM (doses to about 46.2 µM), inactives show at the highest dose activity change, negative = growth inhibition, hits mostly inhibitors. 420,000 compounds, 12% hits. AID 686979; note: potency is the fitted concentration of half-maximal effect; % is set by controls: 0 for no effect and ±100 for the full control effect; nearly all actives have a fitted effect of over 55% in size
#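 Chicken DT40 Tdp1-/- cells stably complemented with human TDP1 were seeded at 400 cells/well in medium containing 20 nM camptothecin, exposed to pin-transferred compounds, and grown at 37 °C for at least 48 hr. Viability was read as ATP luminescence.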
# TDP1 cell noCPT: qHTS for Inhibitors of human tyrosyl-DNA phosphodiesterase 1 (TDP1): qHTS in cells in absence of CPT; Potency, µM (titrated, usually from 46.2 µM), for the others: at the top dose activity change, negative = growth inhibition, usual class: inhibitors; DT40 Tdp1-/- hTDP1 cells, no CPT, ATP luminescence, 48 h; 420,000 compounds, 15% hits; note: potency is the fitted concentration of half-maximal effect; % is set by controls: 0 for no effect and ±100 for the full control effect; nearly all actives have a fitted effect of over 55% in size
#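 Stably hTDP1-transfected Tdp1-null chicken DT40 cells were treated with library compounds minus camptothecin and grown for at least 48 hr at 37 °C, after which cellular ATP was quantified by luminescence.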
# uPA generation: inhibitors of cell surface uPA generation; cell surface uPA generation assay, qHTS; Potency, µM (doses to about 38.3 µM), inactives show at the highest dose activity change, negative = inhibition, actives largely listed as inhibitors; 330,000 compounds, 0.31% hits; AID 540303; active = well fitted inhibition curve with a large enough effect; inconclusive = small, poorly fitted or top-dose-only effect; inactive = no such curve, though single readings can be large or run the other way; tested in mouse RAW 264.7 cells; note: potency is the fitted concentration of half-maximal effect; % is set by controls: 0 for no effect and ±100 for the full control effect; nearly all actives have a fitted effect of over 55% in size
# miR-21 FLuc: miR-21 reporter, rising signal | HeLa miR-21 FLuc reporter, luciferase, 48 h | Potency, µM (top dose mostly 38.3 µM), inactives show at the highest dose reporter change, positive = more light | 340,000 tested, under 10 active | AID 2288; active = well fitted rising curve with a large enough effect; inconclusive = small, poorly fitted or top-dose-only effect; inactive = no such curve, though single readings can be large or run the other way;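 note: % of control where 0% means no effect; miR-21 action dims this reporter so a rising signal means less miR-21 action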
#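 Luminescence from a firefly luciferase reporter carrying a miR-21 binding site downstream, stably expressed under a CMV promoter in HeLa cells that make miR-21 endogenously, reports miRNA modulation after 48 h compound exposure up to approximately 40uM final.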
# TDP1 block: TDP1 (human) enzyme inhibition. recombinant TDP1, AlphaScreen DNA substrate cleavage. 350,000 compounds, 0.28% hits. Q9NUW8. Potency, µM (doses to about 130 µM), for the others: at the highest dose activity change, negative = inhibition, actives largely listed as inhibitors; note: potency is the fitted concentration of half-maximal effect; % is set by controls: 0 for no effect and ±100 for the full control effect; nearly all actives have a fitted effect of over 40% in size
#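 Steps: enzyme plus compound, 15 min RT; add biotin/phosphotyrosine-FITC oligonucleotide (15 nM final), react 5 min; add donor/acceptor beads (10 ug/ml final), 10 min; read AlphaScreen. Tdp1 at 1 nM final.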
# * hit, by the source's call; ? = inconclusive; nt = no result; [ ] = dose if it differs, or a comment. Unless noted, calls come from the whole dose curve; as a rule, active = well fitted curve in the direction sought with a large enough effect; inconclusive = small, poorly fitted or top-dose-only effect, or another doubt; inactive = no such curve, though single readings can be large; an effect the other way counts as inactive or inconclusive.
[1] O=C(CN(C1CCCCC1)C1CCCCC1)N1CCc2ccccc2C1
[2] Cc1ccc(S(=O)(=O)N(CC(=O)N2CCN(c3ccc(F)cc3)CC2)C2CCCCC2)cc1
[3] COc1ccc(N2CCN(C(=O)CN(CCc3ccccc3)S(C)(=O)=O)CC2)cc1
[4] Cc1ccccc1CN(c1ccc(C(=O)N2CCc3ccccc3C2)cc1)S(C)(=O)=O
[5] CNC(=O)c1ccc(N(Cc2ccccc2C)S(C)(=O)=O)cc1
[6] Cc1cc(OCC(=O)N2CCc3ccccc3C2)c(C)cc1Br

entry no. | 1 | 2 | 3 | 4 | 5 | 6
DT40 TDP1 CPT | ? | ? | ? | 12µM* | -4% | ?
TDP1 cell noCPT | 16µM* | 21µM* | ? | 15µM* | 3% | 16µM*
uPA generation | 11% | 3% | -7% | nt | 7% | -2%
miR-21 FLuc | 23% | 10% | 9% | -2% | 1% | -8%
TDP1 block | 3% | 4% | 2% | 5% | 0% | nt

[7] COc1ccccc1N1CCN(C(=O)C(C)N(c2ccc(C)c(C)c2)S(C)(=O)=O)CC1 (stereo unspecified)
[8] COc1ccc(S(=O)(=O)N(CC(=O)N2CCN(c3ccccc3OC)CC2)c2ccccc2)cc1
[9] COc1cccc(N(CC(=O)N2CCN(c3ccccc3OC)CC2)S(C)(=O)=O)c1
[10] COc1ccccc1N1CCN(C(=O)C(C)N(c2ccc(C)cc2)S(C)(=O)=O)CC1 (stereo unspecified)
[11] Cc1ccc(S(=O)(=O)N(CC(=O)N2CCc3ccccc3C2)c2ccc(C)c(C)c2)cc1
[12] Cc1ccc(C)c(OCC(=O)N2CCc3ccccc3C2)c1

entry no. | 7 | 8 | 9 | 10 | 11 | 12
DT40 TDP1 CPT | 15µM* | 21µM* | -9% | ? | 16µM* | -20%
TDP1 cell noCPT | ? | 12µM* | ? | ? | 18µM* | -4%
uPA generation | -1% | -10% | 2% | -6% | nt | -12%
miR-21 FLuc | 20% | 23% | 1% | -2% | ? | -34%
TDP1 block | 7% | 1% | 5% | 2% | 5%[12.3 µM] | 0%

[13] O=C(COC(=O)CCc1nc2ccccc2c(=O)[nH]1)Nc1ccccc1OC(F)F
[14] CCOc1ccc2c(c1)c(=O)c(S(=O)(=O)c1ccc(CC)cc1)cn2CC
[15] NC(=O)CN(c1ccc(Oc2ccccc2)cc1)S(=O)(=O)c1ccccc1
[16] CCNC(=O)CN(c1ccc(Oc2ccccc2)cc1)S(=O)(=O)c1ccccc1
[17] COc1ccc(CNC(=O)N2CCN(c3ccc(F)cc3)CC2)cc1Cl
[18] COCCn1c(=O)[nH]c2cc(C(=O)Nc3cccc(F)c3)ccc2c1=O

entry no. | 13 | 14 | 15 | 16 | 17 | 18
DT40 TDP1 CPT | 3% | ? | 21µM* | -29% | ? | -27%
TDP1 cell noCPT | 18% | ? | ? | ? | 9.2µM* | -16%
uPA generation | 13% | nt | 18% | -9% | -1% | 16%
miR-21 FLuc | nt | 0% | 8% | 9% | -1% | -5%
TDP1 block | 0% | -4% | 2% | 2% | 9% | -3%

# Rewritten bar-delimited: part of the list above.
No. | SMILES | DT40 TDP1 CPT | TDP1 cell noCPT | uPA generation | miR-21 FLuc | TDP1 block
15 | NC(=O)CN(c1ccc(Oc2ccccc2)cc1)S(=O)(=O)c1ccccc1 | 21µM* | ? | 18% | 8% | 2%
16 | CCNC(=O)CN(c1ccc(Oc2ccccc2)cc1)S(=O)(=O)c1ccccc1 | -29% | ? | -9% | 9% | 2%
17 | COc1ccc(CNC(=O)N2CCN(c3ccc(F)cc3)CC2)cc1Cl | ? | 9.2µM* | -1% | -1% | 9%
18 | COCCn1c(=O)[nH]c2cc(C(=O)Nc3cccc(F)c3)ccc2c1=O | -27% | -16% | 16% | -5% | -3%

# Next results
[19] O=C(C1CCN(S(=O)(=O)c2cccc3cccnc23)CC1)N1CCN(c2ccc(Cl)cc2)CC1
[20] Cc1ccc2nc(N=C(N)N)nc(C)c2c1
[21] CCCC(=O)N/C(N)=N/c1nc(C)c2cc(C)ccc2n1
[22] Cc1cc2nc(N=C(N)N)nc(C)c2cc1C
[23] CCC(=O)N/C(N)=N/c1nc(C)c2cc(C)c(C)cc2n1
[24] CCc1ccc2nc(N=C(N)N)nc(C)c2c1

entry no. | 19 | 20 | 21 | 22 | 23 | 24
DT40 TDP1 CPT | ? | ? | 18µM* | 15µM* | -21% | 10µM*
TDP1 cell noCPT | ? | 23µM* | 23µM* | 8.2µM* | ? | 7.3µM*
uPA generation | ? | -7% | 5% | -4% | 6% | 3%
miR-21 FLuc | ? | 14% | -23% | 12% | 2% | 20%
TDP1 block | 1% | -5% | -5% | 4% | 3% | 2%

[25] O=C(NCC1CCCO1)c1ccccc1-c1nc(-c2ccccc2)no1 (stereo unspecified)
[26] Cc1nc(/N=C(\N)NC(=O)c2ccccc2)nc2ccccc12
[27] CCCN(C(=O)CCl)C1=CCCCC1
[28] CCN(C(=O)COC(=O)CNC(=O)c1ccccc1C)C1=CCCCC1
[29] COC(=O)CCC(=O)N(CCN(C(=O)CCC(=O)OC)c1ccccc1)c1ccccc1
[30] CCc1nc2ccc(C(=O)NCC3CCCCC3)cn2c1N(C)Cc1nccs1

entry no. | 25 | 26 | 27 | 28 | 29 | 30
DT40 TDP1 CPT | 1% | 29µM* | 18µM* | -6% | 7% | 16µM*
TDP1 cell noCPT | -28% | ? | 13µM* | -5% | -16% | 21µM*
uPA generation | -1% | nt | nt | 16% | 3% | nt
miR-21 FLuc | -25% | -36% | 11% | nt | -7% | nt
TDP1 block | -3% | 3% | 3% | 1% | 0% | nt

[31] CCc1nc2ccc(C(=O)Nc3cc(-c4ccccc4)ccc3OC)cn2c1N(C)Cc1nccs1
[32] CCc1nc2ccc(C(=O)N(CC)CCN(C)C)cn2c1N(C)Cc1nccs1
[33] CCc1nc2ccc(C(=O)Nc3cc(-c4ccccc4)ccc3OC)cn2c1N(C)C(=O)c1cccc(OC)c1
[34] CCc1nc2ccc(C(=O)Nc3cc(-c4ccccc4)ccc3OC)cn2c1N(C)Cc1ccc(OC)cc1
[35] CNCCOc1ccccc1-c1ccccc1
[36] CNCCCC1c2ccccc2C=Cc2ccccc21

entry no. | 31 | 32 | 33 | 34 | 35 | 36
DT40 TDP1 CPT | 13µM* | -5% | ? | 7.3µM* | -28% | ?
TDP1 cell noCPT | 9.2µM* | -2% | 18µM* | 8.2µM* | ? | 23µM*
uPA generation | nt | nt | nt | nt | -1% | ?
miR-21 FLuc | nt | nt | nt | nt | 0% | -6%
TDP1 block | nt | nt | nt | nt | -6% | 3%

[37] CN(C)S(=O)(=O)c1ccc(NC(=O)Cc2ccc(S(=O)(=O)N3CCOCC3)s2)cc1
[38] COc1ccc(S(=O)(=O)N(C)C)cc1NC(=O)Cc1ccc(S(=O)(=O)N2CCOCC2)s1
[39] CCN(CC)S(=O)(=O)c1cc(NC(=O)Cc2ccc(S(=O)(=O)N3CCOCC3)s2)ccc1Cl
[40] CCOC(=O)c1cc(NC(=O)Cc2ccc(S(=O)(=O)N3CCOCC3)s2)cc(C(=O)OCC)c1
[41] COc1ccc(C2=CCCCCC2)cc1OC
[42] COc1ccc(CN=C2NN=C(c3cccc(OC)c3)CS2)cc1

entry no. | 37 | 38 | 39 | 40 | 41 | 42
DT40 TDP1 CPT | -28% | 13µM* | 21µM* | 23µM* | ? | 17%
TDP1 cell noCPT | -34% | ? | 13µM* | ? | 12µM* | ?
uPA generation | 2% | -5% | -15% | 9% | nt | -6%
miR-21 FLuc | 0% | nt | nt | nt | nt | -36%
TDP1 block | 2% | 2% | nt | -2% | nt | 9%

[43] CCN=C1NN=C(c2cc(C)n(Cc3ccco3)c2C)CS1
[44] COCCn1c(C)cc(C2=NNC(=Nc3ccc(OC)cc3)SC2)c1C
[45] COCCn1c(C)cc(C2=NNC(=NC(C)(C)C)SC2)c1C
[46] CCN=C1NN=C(c2c[nH]c3ccccc23)CS1
[47] Cc1cc(C2=NNC(=NCCc3ccccc3)SC2)c(C)n1CC1CCCO1 (stereo unspecified)
[48] CC(NC(=O)COC(=O)C1CC1C)c1cccc(Cl)c1 (stereo unspecified)
[49] CCc1ccc(N2CC(C(=O)OCc3nc4ccsc4c(=O)[nH]3)CC2=O)cc1 (stereo unspecified)

entry no. | 43 | 44 | 45 | 46 | 47 | 48 | 49
DT40 TDP1 CPT | 16µM* | 23µM* | -97% | -14% | 16µM* | -14% | -22%
TDP1 cell noCPT | 18µM* | 12µM* | 18µM* | -24% | ? | 0% | 22%
uPA generation | 0% | ? | -3% | 1% | -3% | -7% | 0%
miR-21 FLuc | -7% | -6% | -32% | -27% | -37% | nt | nt
TDP1 block | 5% | 4% | 5% | 8% | 5% | -2% | -14%
